Patent US20260382770A1, “MACROCYCLIC COMPOUND AND USE THEREOF” (published 2026)

Assays:
[1] = Metal transfer stability test of compounds in the presence of zinc ions; settings: with ZnCl2, phosphate buffer, 37 °C, 0.5 T
Method: 1. Experimental protocol 2. Test samples: compound 4, gadodiamide, gadobutrol. 3. Experiment instruments: VTMR20-010V-1 Nuclear Magnetic Resonance Cross-Linking Density Imaging Analyzer 4. Experimental method
A 2.5 mM solution of contrast agent solutions and a 2.5 mM solution of zinc chloride were respectively prepared in phosphate buffer (0.026 mol/L KH2PO4 and 0.041 mol/L Na2HPO4). An equal volume of a 2.5 mM ZnCl2 solution was added to a 2.5 mM gadolinium contrast agent solution, and the mixture was mixed by shaking. This moment of complete mixing was designated as time zero (t=0). Immediately thereafter, a 0.5 mL aliquot was withdrawn and subjected to measurement of the longitudinal relaxation time, T1(0), at 37 °C and a magnetic field strength of 0.5 T. The mixed solution was then incubated at 37 °C. 0.5 mL of the solution was taken at time points of 5 min, 180 min, 1440 min and 5760 min, respectively, to determine T1(t) at different time points. The ratio of the relaxivity at different time points to the initial relaxivity at time 0, namely R1(t)/R1(0), was calculated.

[2] = Kinetic stability of compounds in acidic medium (Gd3+ dissociation rate); settings: pH 1.2 hydrochloric acid, 37 °C, 8×10^−6 M
Method: (§1) Gadobutrol, RC1 (Gadopiclenol, prepared according to the method described in example 2 of WO 2020030618 A1), compound 4 and compound 5.
Molecular Devices SpectraMax M2/M2e Microplate Reader.
(1) Hydrochloric acid (pH 1.2) was used as a solvent, and solutions of RC1, compound 4, compound 5 and gadobutrol were prepared at a concentration of 8×10^−6 M, respectively, for subsequent use.
(2) Standard curve plotting: An appropriate amount of GdCl3·6H2O (Shanghai Dingxian Biotechnology Co., Ltd.) was accurately weighed into vials. Then, 1 mL of solutions containing free Gd^3+ at concentrations of 0, 1×10^−6 M, 2×10^−6 M, 4×10^−6 M, 6×10^−6 M, 8×10^−6 M and 10×10^−6 M were prepared respectively using deionized water. Each of the solutions was thoroughly mixed with 40 μL of 5.3×10^−4 M arsenazo III solution (a chromogenic reagent, Shanghai Macklin Biochemical Co., Ltd.) via vortexing. After incubation in the dark at room temperature for 15 min, 150 μL of the mixture was transferred to each well (with duplicate wells) in a 96-well plate, and the absorbance was determined at a wavelength of 655 nm. A standard curve of Gd^3+ concentration versus absorbance was established.
(3) Compound testing: 500 ml of each pre-prepared test solution at a concentration of 8×10^−6 M was evenly dispensed into 3 vials, with 150 mL per vial. The vials were placed at 37 °C 25 mL of the solution was collected from each vial at 0 h, 24 h, 48 h, 96 h and 168 h, respectively. NaOH was added to adjust the pH of the solution to neutral (as indicated by pH test paper). Subsequently, 1 mL of 5.3×10^−4 M arsenazo III solution was added, and the mixture was thoroughly mixed via vortexing. After incubation in the dark at room temperature for 15 min, 150 μL of the mixture was transferred to each well (with duplicate wells) in a 96-well plate, and the absorbance of the samples was determined at a wavelength of 655 nm.
(4) The concentration of free Gd^3+ and the dissociation rate of each test solution at different time points were calculated based on the formula fitted from the standard curve.

[3] = Relaxivity of the compound in water; settings: in deionized water
Method: as §1
Niumag (Suzhou) Nuclear Magnetic Resonance Contrast Agent Relaxivity Analyzer with a 0.5 T magnetic field
Bruker Small Animal Magnetic Resonance Imaging System (BioSpec 70/20 USR) with a 7 T magnetic field
Gadobutrol, RC1, compound 4 and compound 5 were accurately weighed and dissolved in deionized water to prepare solutions with concentrations of 0.5 mM, 1 mM, 2 mM and 4 mM, respectively. 1 mL of the test sample was placed in a 1.5 mL EP (eppendorf) tube, and the longitudinal relaxation time T1 and transverse relaxation time T2 under different magnetic field conditions were measured separately using the Niumag (Suzhou) Nuclear Magnetic Resonance Contrast Agent Relaxivity Analyzer with a 0.5 T magnetic field. The test sample was loaded into a 0.2 mL sample tube until full, and the longitudinal relaxation time T1 and transverse relaxation time T2 under different magnetic field conditions were measured separately using the Bruker Small Animal Magnetic Resonance Imaging System (BioSpec 70/20 USR) with a 7 T magnetic field.
(§2) Based on the relaxation times T1 and T2 of samples at different concentrations, the relaxivities r1 and r2 were calculated respectively. The relaxivity was calculated according to the following equation: […]
r: relaxivity; T: relaxation time (s); C: contrast agent concentration (mM).

canine plasma proteins = test: In vitro canine plasma protein binding rate of compounds; settings: 1 mM
Method: 1. Test samples: EIucirem™ (Gadopiclenol, commercially purchased, lot P233A), compound 4
Elucirem™ and compound 4 were respectively diluted with blank canine plasma to prepare plasma samples at a concentration of 1 mM. The binding rates of Gadopiclenol and compound 4 to canine plasma proteins were determined by ultracentrifugation. After the preparation of plasma samples, 0.5 mL of plasma samples were transferred into ultracentrifugation tubes, with 3 replicates per concentration. After incubation in a CO2 incubator at 37 °C for 0.5 h, the samples were subjected to ultracentrifugation at 627,000 g for 3 hours at 37 °C. After centrifugation, 100 μL of samples were taken from the central layer of the ultracentrifugation tubes and mixed with 100 μL of blank plasma. The samples were stored at −70 °C for subsequent determination. The concentrations of Gadopiclenol and compound 4 in the samples were quantitatively analyzed by LC-MS/MS.
The plasma protein binding rates of analytes at different concentration levels were calculated using the following formulas:
Free rate %=(Concentration of the central layer in ultracentrifugation tubes(Cu)/Concentration of non-ultracentrifuged samples after 0.5 h incubation(C0-5h))*100%, • Binding rate %=100%—Free rate %.

[4] = Determination of relaxivity of compounds in human plasma; settings: 0.5 T, human plasma containing sodium heparin
Method: In other embodiments, in the longitudinal relaxivity r1 test experiment in human plasma (the longitudinal relaxation time T1 is measured at a 0.5 T magnetic field strength using a medium-sized nuclear magnetic resonance imaging analyzer (MesoMR23-060-I), and the relaxivity r1 is calculated based on the relaxation time T1 of samples at different concentrations according to the relaxivity calculation formula
Gadobutrol (Gadovist®), EIucirem™ (Gadopiclenol, commercially purchased), compound 4.
Medium-Sized Nuclear Magnetic Resonance Imaging Analyzer (model: MesoMR23-060-I) with a 0.5 T magnetic field
Human plasma containing sodium heparin was used as the matrix. Compound 4 (0.5 M), gadobutrol injection (1 M) and Gadopiclenol injection (0.5 M) were separately diluted to prepare test solutions at concentrations of 4, 2, 1, 0.5 and 0.25 mM, respectively. 1 mL of each test sample was transferred into a 1.5 mL centrifuge tube, and the longitudinal relaxation time T1 and transverse relaxation time T2 were measured at a 0.5 T magnetic field strength using the Medium-Sized Nuclear Magnetic Resonance Imaging Analyzer (MesoMR23-060-1).
as §2

[5] = 0 h, BLQ is below the limit of quantification
[6] = 24 h, BLQ is below the limit of quantification
[7] = 48 h, BLQ is below the limit of quantification

Row | R1(t)/R1(0) ([1]; 0 min) | R1(t)/R1(0) ([1]; 5 min) | R1(t)/R1(0) ([1]; 180 min) | R1(t)/R1(0) ([1]; 1440 min) | R1(t)/R1(0) ([1]; 5760 min) | Gd^3+ Dissociation rate (%) [2, 5] | Gd^3+ Dissociation rate (%) [2, 6] [%] | Gd^3+ Dissociation rate (%) [2, 7] [%] | Gd^3+ Dissociation rate (%) ([2]; 96 h) | Gd^3+ Dissociation rate (%) ([2]; 168 h) | Relaxivity r1 ([3]; 0.5 T) [mM⁻¹ s⁻¹] | Relaxivity r1 ([3]; 7 T) [mM⁻¹ s⁻¹] | binding to canine plasma proteins (in words) (canine plasma proteins) | Average % (plasma protein binding rate) (canine plasma proteins; ultracentrifugation, 37 °C, average of 3 replicates, if the binding rate is less than 0, the average is recorded as 0%) | Relaxivity r1 [4] [mM⁻¹ s⁻¹] | Substance
1 | 1 | 1.07 | 0.59 | 0.59 | 0.38 |  |  |  |  |  |  |  |  |  |  | Gadodiamide
2 |  |  |  |  |  | BLQ | 24.7 | 35.6 | 37.8 | 61.1 | 11.7 | 6.3 | does not bind to plasma proteins | 0* % |  | Gadopiclenol
3 |  |  |  |  |  | BLQ | 24.1 | 28.7 | 32.3 | 42.1 |  |  |  |  |  | 2,2′,2′-(1^3-methoxy-3,6,9-triaza-1(2,6)-pyridine cyclodecane-3,6,9-triyl)tris(5-((2,3-dihydroxypropyl)amino)-5-oxopentanedioic Acid)gadolinium (III) Complex
4 | 1 | 0.93 | 0.82 | 0.96 | 0.90 | BLQ | 73.5 | 70.1 | 64.6 | 95.3 | 4.4 | 3.5 |  |  | 7.5 | Gadobutrol

Marks after values point to notes of the source that are not given here.
